# Ab-14 light chain CDR variants: yeast mating affinities

The measurements come from Li et al. 2023 (doi:10.1038/s41467-023-39022-2) through the FLAb antibody collection.

The target is the same throughout: PDVDLGDISGINAS, from the HR2 region of SARS-CoV-2 spike.

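Designed CDR sequences, proposed from the first random library and measured here. Their group label is 14L_En_Gibbs (En: ensemble of fine-tuned language models; Gibbs: Gibbs sampling). Affinity was read by AlphaSeq, a pooled yeast mating assay with surface-displayed partners. Mating (16 h, 30 °C) was followed by selection of diploids and sequencing of their barcodes. The ratio of observed to expected reads was calibrated, replicate by replicate, on BCL2-family standards whose Kd was known from biolayer interferometry. The assay was run in six technical replicates.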

Each scFv is VH, a (GGGGS)3 linker, VL, as in the parent Ab-14, and differs from it in the CDRs of the light chain only.
VH: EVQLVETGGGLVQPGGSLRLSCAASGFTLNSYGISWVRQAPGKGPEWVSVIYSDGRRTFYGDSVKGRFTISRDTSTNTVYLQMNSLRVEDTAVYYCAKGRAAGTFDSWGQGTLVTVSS
VL: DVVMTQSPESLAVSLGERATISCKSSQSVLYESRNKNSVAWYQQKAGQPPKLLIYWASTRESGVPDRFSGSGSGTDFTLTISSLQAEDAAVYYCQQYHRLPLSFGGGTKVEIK

Each variant is given by its three light chain CDRs, as the data file delimits them; those of the parent are KSSQSVLYESRNKNSVA, WASTRES, QQYHRLPLS. Scale: log10 of Kd in nM, estimated from mating counts; low values are strong binders. "n.d." marks a missing value. The strain was present, yet no cells mated with the target were sequenced in that replicate, which points to weak or no binding. The authors averaged sequences with at least three values out of six and counted those with two or fewer as poor binders. Nonspecific signal, from three strains lacking the peptide, appeared in 4% of pairings of all light chain designs, centred on 2.64 (5% of these signals below 1.59); values are not corrected for it. For each scFv, signals with the empty controls are counted beside the result, with their mean in brackets. Values of this round are not directly comparable with the first-round values of the same sequences.

| CDR-L1 | CDR-L2 | CDR-L3 | log10 Kd, replicates | control signals |
|---|---|---|---|---|
| QTTAFYEHGKDQQQAMA | NATMRDQ | QQYERLPLS | 1.75 1.38 1.42 1.57 0.62 1.11 | 0/18 |
| NMNVGANFGKEQEQAIA | DVEDRES | QQYQRLPLT | 1.69 2.18 3.18 1.10 1.07 1.25 | 0/18 |
| KITSQIREGTADNNAMA | NADVSNE | QQYSRLPLF | 0.46 0.57 0.47 0.39 0.55 0.56 | 0/18 |
| KEQNDSLFMGQYDNNIA | NTSLRTE | QQYYQLPLT | 0.86 n.d. -0.29 -0.03 -0.43 0.26 | 0/18 |
| ALSQKGFQQSGMRDSIA | HSDQRLA | QQYYHLPLA | 1.05 0.49 1.26 1.25 1.39 0.84 | 1/18 (2.22) |
| KFHMGHEAGQRKHDNVA | EANLRPS | QQYNRLPII | 0.74 0.86 0.55 0.79 0.85 0.50 | 2/18 (2.48) |
| KLTHNTFVLDRDKYSIA | DSERKME | QQYNQLPLT | n.d. n.d. -0.49 0.83 1.40 1.46 | 0/18 |
| FITYQQDQTGLQRNAIA | QVNLKEY | QQYGRLPFA | n.d. 2.18 n.d. n.d. n.d. n.d. | 0/18 |
| KISTQIPEFEMWDNAIA | GATLRET | QHYQRLPLS | 1.65 1.94 1.82 1.45 2.30 2.43 | 2/18 (3.33) |
| KLTTQVGHQMDHKNSIA | EVDMVAC | QQYMHLPLI | 1.72 1.66 1.43 1.10 1.41 1.58 | 0/18 |
| NLKEMEGTNQTKHGNIA | SVDQRMT | QQYFRLPLI | 0.69 0.57 0.53 0.16 0.46 0.44 | 1/18 (3.15) |
| RVSSNLMAGEIHYNAIA | NTKVLEY | QQYMRLPLG | -0.04 0.34 -0.14 0.51 0.16 1.75 | 1/18 (1.63) |
| QVQAIHEHEKDQNQAMA | EASMRDA | QQYERLPLS | 1.07 1.10 0.67 1.36 0.88 1.54 | 3/18 (2.56) |
| RFSQTEQMGIRDYNAVA | NGSTVNT | QHYSRLPIS | 1.75 1.40 1.56 1.41 1.45 2.10 | 3/18 (2.76) |
| ALTSDLEVEQVNARNVA | NAHAVES | QQYQHLPLS | 0.08 -0.27 -0.08 0.09 -0.20 -0.05 | 1/18 (2.15) |
| GIHSQMFGTIAVKKNVA | NANTRLS | QQYSMLPLS | 0.60 0.48 0.40 0.38 0.49 0.79 | 3/18 (2.88) |
| KIRDQQYSQSEMEDNIA | QESTRHQ | QQYFRLPLS | 0.87 0.61 0.65 0.75 1.00 0.80 | 3/18 (2.92) |
| SMAYFQGFYNQQEKAIA | ESATREQ | QQYFRLPLT | 0.70 0.25 0.56 0.35 0.53 0.63 | 0/18 |
| YLVQAADYYDSNYNNIA | NGRLRNE | QQYFHLPLT | n.d. n.d. n.d. n.d. n.d. n.d. | 0/18 |
| KLSMETATLTGQMDSIA | HVEIRWA | QQYHKLPLI | n.d. n.d. n.d. n.d. n.d. n.d. | 0/18 |
| GVTHTMESAQQAPNSIA | NAEQTTI | QQYQRLPLS | 0.78 0.63 0.64 0.61 0.39 1.10 | 0/18 |
| KMVKWESEGDRHAANIA | NANKATD | QQYYRLPLA | -0.05 0.24 0.22 0.06 0.11 0.09 | 1/18 (2.59) |
| ALQMERLGQKQKQNNIA | NQDMRTA | QQYYMLPLV | 0.24 0.05 0.03 -0.17 -0.09 0.14 | 0/18 |
| HIQSNMFGFGGVANNVA | QVATKMV | QQYSKLPLM | 0.99 0.56 0.88 0.16 0.32 0.27 | 0/18 |
| HVFMELAMEKNSYRNIA | DASMRLA | QQYVRLPLG | 0.15 -0.17 -0.18 0.05 0.02 -0.01 | 1/18 (2.57) |
| SIQFYTENDAEWGDSIA | DVSATTA | QQYHRLPLA | 1.94 1.81 1.26 1.25 1.63 1.44 | 0/18 |
| FMEMDFQGNSVNHNSIA | SEEVVTR | QHYARLPLS | n.d. n.d. n.d. 0.41 n.d. n.d. | 0/18 |
| HIELGTWGVQKYDSSVA | HASQRQE | QQYYQLPLT | 0.03 0.02 0.20 0.23 0.05 0.62 | 0/18 |
| SIQNLGMVNSVWKNSIA | DVNILED | QQYYRLPLL | 0.02 -0.13 -0.09 -0.36 -0.14 -0.12 | 1/18 (2.64) |
| IMSESQERDASRLNNIA | DHYTRAT | QQYARLPLS | 0.24 0.05 0.15 -0.03 0.08 0.14 | 4/18 (2.89) |
| ILAENSDDITEKQNSIA | ETQQVYS | QQYHRLPLA | 1.67 1.09 3.99 1.85 1.31 3.02 | 1/18 (1.20) |
| KLYDEAENRYSTATNIA | DKKISLQ | QQYDRLPLS | 1.19 0.81 1.23 0.93 1.47 1.32 | 1/18 (3.83) |
| HFLSLSLHQTGNLNSVA | DAEERQE | QQYMRLPLM | 0.12 -0.03 -0.32 -0.23 -0.41 0.33 | 0/18 |
| KFDFQMPELNYQDNSVA | GMTVSIE | QQYFRLPLT | n.d. n.d. n.d. n.d. n.d. n.d. | 0/18 |
| ILNLSPMGHQIHMDAIA | QEAIRNA | QQYARLPLS | n.d. n.d. 0.88 1.85 n.d. 1.91 | 1/18 (1.77) |
| NVHALDAISQEFQNNVA | EQDCRDA | QQYFRLPLA | 2.28 1.51 2.78 1.59 2.17 2.04 | 0/18 |
| QISLNGWDGEPYEYAVA | EGSIADA | QQYSRLPLS | n.d. 1.36 2.44 n.d. 1.87 0.89 | 0/18 |

4 of these entries, quoted again:

| CDR-L1 | CDR-L2 | CDR-L3 | log10 Kd, replicates | control signals |
|---|---|---|---|---|
| ILNLSPMGHQIHMDAIA | QEAIRNA | QQYARLPLS | n.d. n.d. 0.88 1.85 n.d. 1.91 | 1/18 (1.77) |
| ALQMERLGQKQKQNNIA | NQDMRTA | QQYYMLPLV | 0.24 0.05 0.03 -0.17 -0.09 0.14 | 0/18 |
| QVQAIHEHEKDQNQAMA | EASMRDA | QQYERLPLS | 1.07 1.10 0.67 1.36 0.88 1.54 | 3/18 (2.56) |
| KITSQIREGTADNNAMA | NADVSNE | QQYSRLPLF | 0.46 0.57 0.47 0.39 0.55 0.56 | 0/18 |